Laboratory results published in patent publication US7713964B2, “Methods for treating asthmatic conditions” (Wyeth LLC, priority 2001, dated 2010).

Target: T1, cPLA2 (Homo sapiens, UniProt P47712)
T1 sequence (P47712 1-749): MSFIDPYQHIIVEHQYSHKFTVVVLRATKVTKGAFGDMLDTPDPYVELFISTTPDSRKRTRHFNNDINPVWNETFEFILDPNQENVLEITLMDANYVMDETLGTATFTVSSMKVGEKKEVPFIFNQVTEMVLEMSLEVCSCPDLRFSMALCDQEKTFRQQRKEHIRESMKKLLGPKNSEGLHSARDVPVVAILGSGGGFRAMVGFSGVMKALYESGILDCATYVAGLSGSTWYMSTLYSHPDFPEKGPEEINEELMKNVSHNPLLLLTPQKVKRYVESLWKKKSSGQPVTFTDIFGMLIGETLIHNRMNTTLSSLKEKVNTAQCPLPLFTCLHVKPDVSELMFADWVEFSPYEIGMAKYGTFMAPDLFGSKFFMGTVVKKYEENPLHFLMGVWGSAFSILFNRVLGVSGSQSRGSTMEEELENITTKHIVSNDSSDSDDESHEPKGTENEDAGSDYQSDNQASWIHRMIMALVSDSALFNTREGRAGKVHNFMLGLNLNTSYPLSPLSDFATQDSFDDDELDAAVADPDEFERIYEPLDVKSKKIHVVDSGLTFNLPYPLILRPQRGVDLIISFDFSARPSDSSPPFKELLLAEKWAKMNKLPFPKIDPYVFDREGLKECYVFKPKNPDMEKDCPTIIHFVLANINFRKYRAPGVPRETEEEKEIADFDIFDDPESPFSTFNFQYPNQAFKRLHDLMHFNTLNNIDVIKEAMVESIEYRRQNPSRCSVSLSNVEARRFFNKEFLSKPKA
Experiment: Coumarine Assay (hydrolysis of 7-hydroxycoumarinyl 6-heptenoate by cPLA2, fluorometric)
Assay type: biochemical
Details: 60 μM 7-hydroxycoumarinyl 6-heptenoate substrate, 4 μg cPLA2, pH 7.5; excitation 360 nm, emission 460 nm; read-out: Coumarin IC50

Which IC50 does the source give for “4-(2-{1-benzhydryl-5-chloro-2-[2-(2-methoxy-phenyl-sulfanylmethanesulfonylamino)-ethyl]-1H-indol-3-yl}-ethoxy)-benzoic acid [Example 83]” here?
The IC50 was 0.45 µM.
